In assay [1] the target is T1, N-formyl peptide receptor 2 (Homo sapiens) (UniProt P25090).
T1 sequence (whole entry): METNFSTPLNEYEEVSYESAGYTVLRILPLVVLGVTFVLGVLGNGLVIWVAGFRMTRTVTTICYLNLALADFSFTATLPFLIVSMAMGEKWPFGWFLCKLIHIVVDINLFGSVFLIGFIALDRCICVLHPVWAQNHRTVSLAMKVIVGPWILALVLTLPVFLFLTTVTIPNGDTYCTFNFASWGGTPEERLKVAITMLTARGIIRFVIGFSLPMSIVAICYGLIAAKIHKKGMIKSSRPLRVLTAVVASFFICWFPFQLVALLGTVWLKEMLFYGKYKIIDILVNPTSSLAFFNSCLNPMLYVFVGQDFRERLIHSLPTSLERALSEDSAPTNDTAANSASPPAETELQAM
Kind of assay: Agonist activity at ALX/FPR2 in human THP1 cells harboring NF-kB-Luc assessed as inhibition of LPS-induced NFkB signalling activation by measuring IL-1beta secretion at 10^-9 M pretreated for 30 mins followed by LPS stimulation for 24 hrs by electrochemiluminescence assay. The arrangement: scale not given: the % may be the effect or the level left. Type of assay: cell-based.

The target of assay [2] is T1, N-formyl peptide receptor 2 (Homo sapiens). Kind of assay: Agonist activity at ALX/FPR2 in human THP1 cells harboring NF-kB-Luc assessed as inhibition of LPS-induced NFkB signalling activation by measuring IL-1beta secretion at 10^-11 M pretreated for 30 mins followed by LPS stimulation for 24 hrs by electrochemiluminescence assay. Type of assay: cell-based. Set-up: scale not given: the % may be the effect or the level left.

Assay [3] has the same target. As to the kind of experiment: Agonist activity at ALX/FPR2 in human THP1 cells harboring NF-kB-Luc assessed as inhibition of LPS-induced NFkB signalling activation by measuring IL-12p70 secretion at 10^-11 M pretreated for 30 mins followed by LPS stimulation for 24 hrs by electrochemiluminescence assay. Type of assay: cell-based. The arrangement: scale not given: the % may be the effect or the level left.

Assay [4] has the same target. Kind of assay: Agonist activity at ALX/FPR2 in human THP1 cells harboring NF-kB-Luc assessed as inhibition of LPS-induced NFkB signalling activation by measuring NF-kB activation level at 10^-11 M pretreated for 30 mins followed by LPS stimulation for 24 hrs by luciferase reporter gene assay. The arrangement: scale not given: the % may be the effect or the level left. Type of assay: cell-based. In general terms: Reporter assays use an easily measured gene product as a stand-in for the process of interest.

For assay [5] the target is unchanged. Kind of assay: Agonist activity at ALX/FPR2 in human THP1 cells harboring NF-kB-Luc assessed as inhibition of LPS-induced NFkB signalling activation by measuring IFNgamma secretion at 10^-7 M pretreated for 30 mins followed by LPS stimulation for 24 hrs by electrochemiluminescence assay. The arrangement: scale not given: the % may be the effect or the level left. The class given is cell-based.

Assay [6] shares this target. Kind of assay: Agonist activity at ALX/FPR2 in human THP1 cells harboring NF-kB-Luc assessed as inhibition of LPS-induced NFkB signalling activation by measuring IL-6 secretion at 10^-7 M pretreated for 30 mins followed by LPS stimulation for 24 hrs by electrochemiluminescence assay. The class given is cell-based. Set-up: scale not given: the % may be the effect or the level left.

The target is the same in assay [7]. As to the kind of experiment: Agonist activity at ALX/FPR2 in human THP1 cells harboring NF-kB-Luc assessed as inhibition of LPS-induced NFkB signalling activation by measuring NF-kB activation level at 10^-7 M pretreated for 30 mins followed by LPS stimulation for 24 hrs by luciferase reporter gene assay. The class given is cell-based. Set-up: scale not given: the % may be the effect or the level left.

For assay [8] the target is unchanged. Kind of assay: Agonist activity at ALX/FPR2 in human THP1 cells harboring NF-kB-Luc assessed as inhibition of LPS-induced NFkB signalling activation by measuring IL-12p70 secretion at 10^-9 M pretreated for 30 mins followed by LPS stimulation for 24 hrs by electrochemiluminescence assay. The class given is cell-based. Set-up: scale not given: the % may be the effect or the level left.

For assay [9] the target is unchanged. As to the kind of experiment: Agonist activity at ALX/FPR2 in human THP1 cells harboring NF-kB-Luc assessed as inhibition of LPS-induced NFkB signalling activation by measuring NF-kB activation level at 10^-10 M pretreated for 30 mins followed by LPS stimulation for 24 hrs by luciferase reporter gene assay. The class given is cell-based. The arrangement: scale not given: the % may be the effect or the level left.

For assay [10] the target is unchanged. Kind of assay: Agonist activity at ALX/FPR2 in human THP1 cells harboring NF-kB-Luc assessed as inhibition of LPS-induced NFkB signalling activation by measuring NF-kB activation level at 10^-9 M pretreated for 30 mins followed by LPS stimulation for 24 hrs by luciferase reporter gene assay. Type of assay: cell-based. Set-up: scale not given: the % may be the effect or the level left.

Assay [11] has the same target. As to the kind of experiment: Agonist activity at ALX/FPR2 in human THP1 cells harboring NF-kB-Luc assessed as inhibition of LPS-induced NFkB signalling activation by measuring IL-12p70 secretion at 10^-7 M pretreated for 30 mins followed by LPS stimulation for 24 hrs by electrochemiluminescence assay. The class given is cell-based. The arrangement: scale not given: the % may be the effect or the level left.

Assay [12] has the same target. As to the kind of experiment: Agonist activity at ALX/FPR2 in human THP1 cells harboring NF-kB-Luc assessed as inhibition of LPS-induced NFkB signalling activation by measuring NF-kB activation level at 10^-12 M pretreated for 30 mins followed by LPS stimulation for 24 hrs by luciferase reporter gene assay. Type of assay: cell-based. Set-up: scale not given: the % may be the effect or the level left.

Assay [13] shares this target. As to the kind of experiment: Agonist activity at ALX/FPR2 in human THP1 cells harboring NF-kB-Luc assessed as inhibition of LPS-induced NFkB signalling activation by measuring NF-kB activation level at 10^-6 M pretreated for 30 mins followed by LPS stimulation for 24 hrs by luciferase reporter gene assay. The class given is cell-based. The arrangement: scale not given: the % may be the effect or the level left.

Assay [14] has the same target. As to the kind of experiment: Agonist activity at ALX/FPR2 in human THP1 cells harboring NF-kB-Luc assessed as inhibition of LPS-induced NFkB signalling activation by measuring IL-1beta secretion at 10^-7 M pretreated for 30 mins followed by LPS stimulation for 24 hrs by electrochemiluminescence assay. Type of assay: cell-based. Set-up: scale not given: the % may be the effect or the level left.

The target is the same in assay [15]. As to the kind of experiment: Agonist activity at ALX/FPR2 in human THP1 cells harboring NF-kB-Luc assessed as inhibition of LPS-induced NFkB signalling activation by measuring IL-6 secretion at 10^-9 M pretreated for 30 mins followed by LPS stimulation for 24 hrs by electrochemiluminescence assay. Type of assay: cell-based. Set-up: scale not given: the % may be the effect or the level left.

Assay [16] shares this target. As to the kind of experiment: Agonist activity at ALX/FPR2 (unknown origin) expressed in HEK293 cells co-expressing Galphaq assessed as induction of intracellular calcium accumulation at 0.01 nM to 100 nM by Fluo-4 dye based fluorescence spectrophotometric assay. Type of assay: functional, cell-based.
For assay [17] the target is unchanged. Kind of assay: Agonist activity at ALX/FPR2 in human THP1 cells harboring NF-kB-Luc assessed as inhibition of LPS-induced NFkB signalling activation by measuring TNFalpha secretion at 10^-7 M pretreated for 30 mins followed by LPS stimulation for 24 hrs by electrochemiluminescence assay. The class given is cell-based. Set-up: scale not given: the % may be the effect or the level left.

The target is the same in assay [18]. As to the kind of experiment: Agonist activity at ALX/FPR2 in human THP1 cells harboring NF-kB-Luc assessed as inhibition of LPS-induced NFkB signalling activation by measuring IL-6 secretion at 10^-11 M pretreated for 30 mins followed by LPS stimulation for 24 hrs by electrochemiluminescence assay. Type of assay: cell-based. The arrangement: scale not given: the % may be the effect or the level left.

Assay [19] shares this target. As to the kind of experiment: Agonist activity at ALX/FPR2 in human THP1 cells harboring NF-kB-Luc assessed as inhibition of LPS-induced NFkB signalling activation by measuring TNFalpha secretion at 10^-9 M pretreated for 30 mins followed by LPS stimulation for 24 hrs by electrochemiluminescence assay. Type of assay: cell-based. Set-up: scale not given: the % may be the effect or the level left.

Assay [20] shares this target. Kind of assay: Agonist activity at ALX/FPR2 in human THP1 cells harboring NF-kB-Luc assessed as inhibition of LPS-induced NFkB signalling activation by measuring TNFalpha secretion at 10^-11 M pretreated for 30 mins followed by LPS stimulation for 24 hrs by electrochemiluminescence assay. Type of assay: cell-based. Set-up: scale not given: the % may be the effect or the level left.

Assay [21] has the same target. As to the kind of experiment: Agonist activity at ALX/FPR2 in human THP1 cells harboring NF-kB-Luc assessed as inhibition of LPS-induced NFkB signalling activation by measuring IFNgamma secretion at 10^-11 M pretreated for 30 mins followed by LPS stimulation for 24 hrs by electrochemiluminescence assay. Set-up: scale not given: the % may be the effect or the level left. The class given is cell-based.

Assay [22] has the same target. Kind of assay: Agonist activity at ALX/FPR2 in human THP1 cells harboring NF-kB-Luc assessed as inhibition of LPS-induced NFkB signalling activation by measuring NF-kB activation level at 10^-8 M pretreated for 30 mins followed by LPS stimulation for 24 hrs by luciferase reporter gene assay. The class given is cell-based. The arrangement: scale not given: the % may be the effect or the level left.

Assay [23] shares this target. As to the kind of experiment: Agonist activity at ALX/FPR2 in human THP1 cells harboring NF-kB-Luc assessed as inhibition of LPS-induced NFkB signalling activation by measuring IFNgamma secretion at 10^-9 M pretreated for 30 mins followed by LPS stimulation for 24 hrs by electrochemiluminescence assay. Type of assay: cell-based. Set-up: scale not given: the % may be the effect or the level left.

The species entered for assay [24] is Homo sapiens. As to the kind of experiment: Activation of Luc-fused NFkB (unknown origin) expressed in non-stimulated human THP1 cells assessed as relative luminescence unit at 10^-8 M after 24 hrs by luciferase reporter gene assay (reference value: 100%). The class given is cell-based.
The species entered for assay [25] is Homo sapiens. As to the kind of experiment: Activation of Luc-fused NFkB (unknown origin) expressed in non-stimulated human THP1 cells assessed as relative luminescence unit at 10^-11 M after 24 hrs by luciferase reporter gene assay (reference value: 100%). The class given is cell-based.

Calls of active or inactive are those of the source. The rule behind the calls is not given here.

Turning to `CCCCC[C@H](O)c1nc(-c2ccccc2)oc1/C=C/[C@@H](O)[C@@H](O)CCCC(=O)OC(C)C`, the Activity is 75.7% in assay [1]; 98.4% in [2]; 79.5% in assay [3]; 75.8% in [4]; 50.1% in assay [5]; 82.3% in [6]. Also, the Activity in [7] worked out at 81%; in assay [8], 63.5%; in assay [9], 77.2%; in assay [10], 79.9%; in [11], 66.6%; in assay [12], 75.8%. The Activity in [13] stood at 83.7%; in assay [14], 53.6%; in [15], 75%; in assay [17] it was 70.9%; in assay [18], 74.8%; in assay [19], 70.7%. For the same compound, the Activity was 81.2% in assay [20], 72.3% in assay [21], 90.1% in assay [22] and 42.6% in [23]. In addition, in assay [16], the outcome was Active.

Take `COC(=O)CCC[C@H](O)[C@H](O)/C=C/c1nc(C)n(C)c1[C@H](C)O`: the Activity was found to be 2.9% in the assay listed under Homo sapiens [24]; 259% in [1]; 238% in assay [2]; 191% in [3]; 100% in assay [4]; 11.7% in assay [5]. The Activity in assay [6] was 118%; in assay [7], 87.9%; in assay [8], 214%; in [9], 99.4%; in assay [10], 100%; in assay [11] it was 290%. The Activity was determined as 96.8% in [12]; 82.2% in [13]; 313% in assay [14]; 110% in assay [15]; 116% in assay [17]; 95.1% in assay [18]. Further, the Activity came to 2.9% in the assay filed under Homo sapiens [25]; 86.3% in [19]; 82.2% in assay [20]; 185% in assay [21]; 86.7% in assay [22]; 197% in [23].

With `CCCCC[C@@H](O)c1c(/C=C/[C@@H](O)[C@@H](O)CCCC(=O)OC)nc(C)n1C`, the Activity in [1] was 95%; in [2] it was 117%; in assay [3] it was 94.3%; in [4] it was 58.7%; in assay [5], 63.3%; in [6], 87.9%. Moreover, the Activity is 92% in [7]; 80.7% in assay [8]; 86.9% in [9]; 97.7% in assay [10]; 73.1% in assay [11]; 56.2% in [12]. The Activity was found to be 94.2% in [13]; 98.1% in assay [14]; 93.1% in assay [15]; 82.1% in assay [17]; 95.4% in assay [18]; 91.2% in assay [19]. Besides, the Activity was found to be 106% in [20], 87.7% in [21], 102% in assay [22] and 86.1% in assay [23]. Besides, in assay [16], the result was Active.

The values above are taken from ChEMBL document CHEMBL4382216, “Asymmetric synthesis and biological evaluation of imidazole- and oxazole-containing synthetic lipoxin A4 mimetics (sLXms)” (Eur J Med Chem, 2019).
